Measurements as given in PubChem BioAssay AID706 (SRMLSC, 2007).
Only a part is listed here, and it is no random draw. The source made the active and inactive calls.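 How the source made its calls: active means growth inhibition above a set limit, 3 SD over mean compound inhibition, in both replicates (cut at about 43% in these data); inconclusive means above the limit in only one replicate; inactive means at or below the limit in both replicates.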

assay: S. cerevisiae growth inhibition in restrictive medium, OD615, pilot screen, restrictive growth control, yeast lifespan reduction project (AID 706); settings: OD615, 48 h, at 10 µM, active compounds read high;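 further: modified DeaD lifespan yeast strain shifted to restrictive glucose medium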
Outline: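 material = engineered S. cerevisiae DeaD strain | buffer or medium = glucose-based CSMM-D restrictive medium | dosing = one concentration, 10 µM final, 0.25% DMSO | schedule = 4 h pre-growth plus 48 h compound exposure, 30 °C | detection = OD615 absorbance reading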

SMILES	growth inhibition
Fc1ccccc1NC1CCN(Cc2ccccc2)CC1	inactive: -16.8%
